Source: publication PMC9264368, “Structural Analysis and Development of Notum Fragment Screening Hits” (ACS Chemical Neuroscience, 2022)

Tests used:
Notum [1] = molecular target: T1, Notum (Homo sapiens, UniProt Q6P988, C330S); assay: biochemical
T1 sequence (Q6P988 81-451 C330S): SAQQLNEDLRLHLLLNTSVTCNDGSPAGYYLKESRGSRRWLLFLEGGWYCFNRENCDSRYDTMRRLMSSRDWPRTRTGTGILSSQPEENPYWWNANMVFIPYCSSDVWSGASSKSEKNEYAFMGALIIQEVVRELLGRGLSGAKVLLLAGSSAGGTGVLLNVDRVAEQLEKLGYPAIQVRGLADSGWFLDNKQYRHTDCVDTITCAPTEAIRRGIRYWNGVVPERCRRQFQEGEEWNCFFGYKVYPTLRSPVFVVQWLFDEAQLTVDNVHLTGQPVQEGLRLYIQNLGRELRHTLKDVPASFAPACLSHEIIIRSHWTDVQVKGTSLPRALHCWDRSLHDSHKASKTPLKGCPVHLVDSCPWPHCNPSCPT

Notum [2] = molecular target: T1, Notum

Structure (SMILES) | IC50 (Notum [1]; IC50 (µM)) [µM] | IC50 (Notum [1]; Notum IC50) [µM] | LE (ligand efficiency) (Notum [2]; LE = 1.4(−pIC50)/HAC) | LLE (lipophilic ligand efficiency) (Notum [2]; LLE = pIC50 – clogP) | LE (Notum [2]; supplementary CSV) | LLE (Notum [2]; supplementary CSV) | IC50 (Notum [1]; Notum IC50, OPTS substrate, 10-point curves 30 nM to 1 mM, mean ± s.d. of N = 2–4 unless stated, Table 1 and figures) [µM]
CCC(=O)Nc1nc(C)cs1 [compound 3, N-(4-Methylthiazol-2-yl)propanamide] | > 1000 | > 1000 |  |  |  |  | 
c1ccn(-c2ccc(N3CCOCC3)cc2)c1 [compound 36] |  |  | 0.34 | 1.4 | 0.34 | 1.4 | 53 ± 18
